The text below walks through data of PubChem BioAssay AID940 (Emory University Molecular Libraries Screening Center, 2007).

Sequences of proteins named here, by UniProt entry; tags and fusion partners are left off.
UniProt P43116, whole entry: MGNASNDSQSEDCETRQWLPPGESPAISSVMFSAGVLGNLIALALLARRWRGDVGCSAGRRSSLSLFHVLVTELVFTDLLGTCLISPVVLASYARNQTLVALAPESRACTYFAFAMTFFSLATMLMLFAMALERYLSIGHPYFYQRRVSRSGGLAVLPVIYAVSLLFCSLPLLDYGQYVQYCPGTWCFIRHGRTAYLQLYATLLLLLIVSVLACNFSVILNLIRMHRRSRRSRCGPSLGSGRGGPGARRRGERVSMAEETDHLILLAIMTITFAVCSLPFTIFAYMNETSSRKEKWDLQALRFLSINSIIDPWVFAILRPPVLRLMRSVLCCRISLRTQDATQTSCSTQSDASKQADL

The entries are a selection whose mix differs from that of the whole data set. Activity calls are given as the source filed them.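 How the source made its calls: active means compounds whose cAMP rise, as percent of the full-agonist control response, exceeds 60; inactive means the rest.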

This test deals with Prostaglandin E2 receptor EP2 subtype (Homo sapiens) (UniProt P43116). The test can be described thus: EP2 receptor modulators, cAMP readout, primary screen, cell-based, HTRF cAMP, PGE2 stimulation (AID 940).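 Further: rat C6 glioma line stably carrying human EP2 under a CMV promoter; the protocol text gives 20 µM as final concentration; 100% = response of wells given 1 µM PGE2.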 The note with it: EP2-expressing cells, cAMP HTRF FRET, PGE2 co-stimulation; at 25 µM; hits give high values.
For the compound `CN(CCCl)CCCl`, the induction is inactive: 17.9%.
